Measured values reported in patent publication US11072584B2, “Carbon monoxide releasing norbornenone compounds” (OTAGO INNOVATION LIMITED, priority 2015, dated 2021).

Experiment: Solubility in water
Format: physicochemical
Conditions: water or physiological buffers; bis-trifluoroacetate Salt

Compound: CC12C(=O)C(C)(C(c3ccccc3)=C1c1ccccc1)C1(Br)C(=O)N(CCNCCN)C(=O)C21 (stereo not shown) [oCOm-23, 2-(2-(2-Aminoethyl)aminoethyl)-3a-bromo-3a,4,7,7a-tetrahydro-4,7-dimethyl-5,6-diphenyl-4,7-methano-1H-isoindole-1,3,8(2H)-trione bis-trifluoroacetate Salt]
- solubility (in words): increased solubility; also recorded: water soluble

Entries after “also recorded” stand apart in the source; their conditions may differ. Counter-ions that a name gives are not always drawn.
